Data on 1 substance can be found in PMC8549523.

The chains behind the UniProt entries cited, without tags or fusion partners. Residues count along the entry.
UniProt P15529, 35-392: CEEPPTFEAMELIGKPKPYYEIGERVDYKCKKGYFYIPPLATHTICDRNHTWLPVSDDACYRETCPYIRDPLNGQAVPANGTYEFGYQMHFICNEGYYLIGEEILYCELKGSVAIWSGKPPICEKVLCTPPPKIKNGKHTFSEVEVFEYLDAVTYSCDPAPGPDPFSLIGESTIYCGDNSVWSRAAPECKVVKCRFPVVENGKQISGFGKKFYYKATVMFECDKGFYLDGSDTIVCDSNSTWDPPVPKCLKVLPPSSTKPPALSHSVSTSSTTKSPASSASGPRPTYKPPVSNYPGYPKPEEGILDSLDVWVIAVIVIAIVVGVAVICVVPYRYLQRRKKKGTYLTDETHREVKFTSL

This assay deals with CD46 (UniProt P15529). Kind of assay: SPR; affinity and interaction half-life told as data not shown; CD46 immobilised, hexon as analyte. For orientation: SPR reads the build-up and loss of mass on a sensor chip optically.

In turn, “hexon protein of HAdV-20-42-42 (natural protein)” displayed an interaction half-life of 3.12 min.
